Test results from patent US20250381149A1, “CATIONIC AMPHIPHILIC COMPOUND-BASED NANOPARTICLE COMPOSITIONS” (Universiteit Gent, priority 2022, published 2025).

Protein sequences, listed by entry. Tags and fused reporters are not part of them.
UniProt P28223, whole entry: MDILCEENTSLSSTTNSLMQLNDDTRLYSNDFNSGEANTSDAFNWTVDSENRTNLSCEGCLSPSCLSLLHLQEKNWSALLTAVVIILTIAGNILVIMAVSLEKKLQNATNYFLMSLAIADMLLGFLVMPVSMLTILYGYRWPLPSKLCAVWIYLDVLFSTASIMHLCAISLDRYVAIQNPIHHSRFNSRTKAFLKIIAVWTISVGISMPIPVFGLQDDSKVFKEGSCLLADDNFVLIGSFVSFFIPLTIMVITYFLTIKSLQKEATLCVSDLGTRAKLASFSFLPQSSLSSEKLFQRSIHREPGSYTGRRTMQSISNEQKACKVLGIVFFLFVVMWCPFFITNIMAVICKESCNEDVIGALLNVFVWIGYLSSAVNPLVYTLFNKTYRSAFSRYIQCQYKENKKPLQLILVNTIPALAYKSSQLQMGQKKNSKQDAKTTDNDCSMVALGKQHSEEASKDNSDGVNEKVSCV

Target: T1, 5-HT2AR (serotonin 2A receptor) (Homo sapiens, UniProt P28223)
T1 construct: expressed in transfected cells
Format: cell-based

Nortriptyline hydrochloride
LSD-induced 5-HT2AR activation: reduced or even completely prevented
